From patent US9212180B2 (priority 2013, dated 2015) come the findings set out here.

Amino acid sequences for entries named in this document (tags omitted).
UniProt O00255, whole entry: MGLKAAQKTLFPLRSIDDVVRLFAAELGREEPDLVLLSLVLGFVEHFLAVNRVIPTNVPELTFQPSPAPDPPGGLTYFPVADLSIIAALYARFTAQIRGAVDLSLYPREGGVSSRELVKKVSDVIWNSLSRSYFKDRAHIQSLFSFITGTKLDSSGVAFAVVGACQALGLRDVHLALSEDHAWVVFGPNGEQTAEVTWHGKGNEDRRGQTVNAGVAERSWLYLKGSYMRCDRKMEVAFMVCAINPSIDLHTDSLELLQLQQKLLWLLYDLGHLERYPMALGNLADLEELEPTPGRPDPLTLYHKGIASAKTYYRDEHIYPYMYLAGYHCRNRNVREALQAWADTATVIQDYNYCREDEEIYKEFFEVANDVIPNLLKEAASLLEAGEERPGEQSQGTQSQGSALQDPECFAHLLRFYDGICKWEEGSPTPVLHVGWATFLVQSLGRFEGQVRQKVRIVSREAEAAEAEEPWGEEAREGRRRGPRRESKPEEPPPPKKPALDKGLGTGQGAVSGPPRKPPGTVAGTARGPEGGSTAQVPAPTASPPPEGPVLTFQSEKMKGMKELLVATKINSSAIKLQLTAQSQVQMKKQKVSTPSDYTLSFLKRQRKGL

pIC50: −log10 of the molar value.

In this assay the target is menin-MLL interaction (Homo sapiens, UniProt O00255).
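Also: fluorescence polarization competition assay, inhibitors lower the fluorescence anisotropy signal, IC50 taken from this drop.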

Broadly, the pIC50 is the IC50 on a negative log10 scale, so that one unit is a factor of ten. In turn, `NCc1ccc(OCCCN2CCC(C(O)(c3ccccc3)c3ccccc3)CC2)cc1` showed a pIC50 of 5.12.
